Literature values as cited in patent US11291683B2, “Bilayer tablets of B vitamins and process for preparing the same” (Access Business Group International LLC, priority 2016, dated 2022).

Details: cited from earlier work

Thiamine Mononitrate [Thiamine (B1) mononitrate]
Solubility in Water (Per 100 ml water): 2.7 g per 100 ml water
